Assay results published in article PMC3084282.

What was measured:
[1] = molecular target: α-crystallin (human lens extract) (human (endogenous in lens)) (UniProt P02489)
[2] = molecular target: α-crystallin (human lens extract) (human (endogenous in lens)) (UniProt P02489); remark: listed apart in the source

Row | Amount of human lens proteins precipitated by the peptide (µg): 25 µg peptide with 2 mg water-soluble extract of human lens, 50 mM phosphate pH 7.2, 37°C, 24 h; extract alone ∼12 µg [1] [µg] | protein precipitated after 24 h at 37°C from human lens crystallins (0.5–9 mg) with 2.5–10 µg of peptide in 1 ml buffer [2] [µg] | Substance
1 | 103 |  | αA-(66-80-Ala) peptide
2 | 139 | 40 | αA-(66-80) peptide
3 | 19 |  | αA-(66-80-Scr) peptide
4 | 14 |  | αA-(66-80-Pro) peptide
